Two compounds from ChEMBL document CHEMBL5325394, “What We Have Gained from Ibogaine: α3β4 Nicotinic Acetylcholine Receptor Inhibitors as Treatments for Substance Use Disorders” (J Med Chem, 2023) can be followed below.

Sequences of proteins named here, by UniProt entry; tags and fusion partners are left off.
UniProt P30926, whole entry: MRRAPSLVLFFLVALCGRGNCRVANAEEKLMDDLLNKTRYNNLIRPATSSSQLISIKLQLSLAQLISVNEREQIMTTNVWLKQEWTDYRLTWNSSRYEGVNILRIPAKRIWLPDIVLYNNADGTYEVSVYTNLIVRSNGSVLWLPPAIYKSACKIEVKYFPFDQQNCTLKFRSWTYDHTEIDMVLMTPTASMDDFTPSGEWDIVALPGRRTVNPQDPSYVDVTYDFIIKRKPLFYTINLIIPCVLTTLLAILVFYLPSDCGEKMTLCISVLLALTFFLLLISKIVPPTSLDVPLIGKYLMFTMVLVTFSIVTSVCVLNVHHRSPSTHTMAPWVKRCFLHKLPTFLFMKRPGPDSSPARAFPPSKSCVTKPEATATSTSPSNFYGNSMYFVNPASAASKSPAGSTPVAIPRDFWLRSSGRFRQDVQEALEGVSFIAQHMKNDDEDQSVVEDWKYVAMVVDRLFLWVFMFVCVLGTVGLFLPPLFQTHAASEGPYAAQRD
UniProt P32297, whole entry: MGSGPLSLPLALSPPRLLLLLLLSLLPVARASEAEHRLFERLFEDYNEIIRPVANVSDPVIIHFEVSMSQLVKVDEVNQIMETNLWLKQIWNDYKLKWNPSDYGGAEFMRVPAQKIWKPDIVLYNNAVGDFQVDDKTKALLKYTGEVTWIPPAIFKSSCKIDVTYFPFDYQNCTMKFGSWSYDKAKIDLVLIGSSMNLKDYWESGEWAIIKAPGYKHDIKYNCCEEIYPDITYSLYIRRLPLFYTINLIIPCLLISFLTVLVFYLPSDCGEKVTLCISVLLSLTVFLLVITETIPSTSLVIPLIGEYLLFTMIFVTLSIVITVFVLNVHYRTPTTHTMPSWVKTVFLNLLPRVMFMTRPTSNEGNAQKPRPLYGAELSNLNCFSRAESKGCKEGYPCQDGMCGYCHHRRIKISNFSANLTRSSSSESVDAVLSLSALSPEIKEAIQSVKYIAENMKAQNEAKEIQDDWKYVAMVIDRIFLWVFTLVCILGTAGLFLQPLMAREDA

pIC50, pKi: −log10 of the molar value.

Experiment [1] deals with T1, Neuronal acetylcholine receptor; alpha3/beta4 (Homo sapiens, UniProt P30926+P32297). Description: Antagonist activity at alpha3beta4 nAChR (unknown origin). The format is protein-complex assay.
In experiment [2] the target is T1, Neuronal acetylcholine receptor; alpha3/beta4. Description: Antagonist activity at alpha3beta4 nAChRs (unknown origin) assessed as inhibition constant. The format is protein-complex assay.

The pIC50 is −log10 of the IC50, conventionally taken in molar units. A high value points to a low IC50. In experiment [1], `CN1C2CCCC1CC(Nc1ccccc1Br)C2` (configuration not stated) had a pIC50 of 7.52.
As usually defined, the pKi is the negative decadic logarithm of the Ki, by convention in mol/L. On to `CNC1(C)[C@H]2CC[C@H](C2)C1(C)C` (mixture of isomers), for which the pKi in experiment [2] is 6.22.
